{
  "source": "patent US20110294730A1",
  "about": "“METHOD OF TREATING GLAUCOMA AND INTRAOCULAR HYPERTENSION” (priority 2010, published 2011)",
  "key": {"[1]": {"conditions": "local application: balding scalp, eye lid hair line, oral and nasal mucosa, conjunctival sac, up to 3-5 IU to both eyes"}, "[2]": {"conditions": "deposited in the conjunctival sac"}},
  "note": "Read-outs that look alike come from different tables or passages of the source.",
  "data": [
    {"substance": "insulin", "values": [
      {"measurement": "change of blood sugar (hypoglycemic effects)", "setting": "[1]", "result": "did not change the blood sugar"},
      {"measurement": "change of blood sugar (hypoglycemic effects)", "setting": "[1]; listed as Insulin eye drops", "result": "does not change the blood glucose levels"},
      {"measurement": "absorption from the conjunctival sac", "setting": "[2]", "result": "rapidly absorbed"}
    ]}
  ]
}
